Measured values reported in US11547681B2, “N-acylethanolamide derivatives and uses thereof” (ELIEM THERAPEUTICS, INC., priority 2016, dated 2023).
Like-named read-outs stand apart in the source and are kept apart here.

How the values were obtained:
Liver S9 stability, rat = details: control compound
[1] = male, Beagle, dog, s9
[2] = Intestinal S9 fraction stability, human
[3] = Liver S9 stability, mouse; details: Mouse liver S9, control compound

C[C@]12CC[C@H]3[C@@H](CCC4=CC(=O)CC[C@@]43C)[C@@H]1CC[C@@H]2O [Testosterone, testosterone]
CLint (ml/min/mg protein) (Liver S9 stability, rat): 0.148 ml/min/mg protein
Half-life [1]: 14 min
Half-life (min) [1]: 14 min
Half-life [2]: 14 min
Half-life ([2]; Control Compound): 14 min
CLint [3]: 0.0976 ml/min/mg protein
